Source: patent US11643403B2 (ILDONG PHARMACEUTICAL CO., LTD., priority 2019, dated 2023)

Assays:
[1] = Intravenous glucose tolerance test (ivGTT) via intravenous administration, plasma insulin ELISA; assay type: in vivo; settings: test substance 1 mg/mL/kg intravenously, glucose 0.25 g/kg iv, maximum plasma insulin
Method: Before the intravenous glucose tolerance test (ivGTT) was performed, monkeys to be used in the test were fasted for 16 hours. After the fasting, fasting blood sugar was measured on the day of the test, and the monkeys were grouped to minimize blood sugar deviation. Each of the monkeys was fixed on a correction chair and anesthetized. A tube catheter was inserted into a saphenous vein of the monkey immediately before glucose administration (0 minute), and the test substance (1 mg/mL/kg) was administered intravenously. After the drug administration, glucose (0.25 g/kg, 50% dextrose solution 0.5 mL/kg) was intravenously administered through the tube catheter inserted into the vein. […] The separated plasma samples were stored in a frozen state until insulin analysis.
(§1) The frozen plasma samples were slowly thawed on ice. An ELISA test was performed according to a protocol provided with a Monkey insulin ELISA kit (LSBio, Cat No. LS-F10306). An insulin concentration was calculated by drawing a standard curve using the absorbance of the insulin standard and applying the absorbance of each measured sample thereto.

[2] = Intravenous glucose tolerance test (ivGTT) via oral administration, plasma insulin ELISA; assay type: in vivo; settings: test substance 50 mg/5 mL/kg orally 60 minutes before glucose 0.25 g/kg iv, maximum plasma insulin
Method: Before performing the ivGTT, the monkeys to be used in the test were fasted for 16 hours. After the fasting, fasting blood sugar was measured on the day of the test, and then the monkeys were grouped to minimize blood sugar deviation. On 60 minutes before glucose administration (−60 minutes), each of the monkeys was fixed on a correction chair, and the test substance (50 mg/5 mL/kg) was administered orally using a catheter for oral administration. The monkey fixed on the correction chair was anesthetized, and glucose (0.25 g/kg, 50% dextrose solution 0.5 mL/kg) was intravenously administered through a tube catheter inserted into the vein. […] The separated plasma samples were stored in a frozen state until insulin analysis.
as §1

Structure (SMILES): N#Cc1ccc(COc2cccc(C3CCN(Cc4nc5ccc(C(=O)O)nc5n4C[C@@H]4CCO4)CC3)c2)c(F)c1 [Example 3, (S)-2-((4-(3-((4-cyano-2-fluorobenzyl)oxy)phenyl)piperidin-1-yl)methyl)-3-(oxetan-2-yl-methyl)-3H-imidazo[4,5-b]pyridine-5-carboxylic acid]
- Monkey ivGTT (iv) insulinmax (IU/mL) [1]: ++ (a maximum insulin concentration is greater than 250 IU/mL)
- Monkey ivGTT (po) insulinmax [2]: ++ (a maximum insulin concentration is greater than 100 IU/mL)

Structure (SMILES): C[C@H]1CN(c2cncc(OCc3ccc(C#N)cc3F)n2)CCN1Cc1nc2ccc(C(=O)O)cc2n1C[C@@H]1CCO1 [Example 4, 2-(((S)-4-(6-((4-cyano-2-fluorobenzyl)oxy)pyrazin-2-yl)-2-methylpiperazin-1-yl)methyl)-1-(((S)-oxetan-2-yl)methyl)-1H-benzo[d] imidazole-6-carboxylic acid]
- Monkey ivGTT (iv) insulinmax (IU/mL) [1]: ++ (a maximum insulin concentration is greater than 250 IU/mL)
- Monkey ivGTT (po) insulinmax [2]: ++ (a maximum insulin concentration is greater than 100 IU/mL)

Structure (SMILES): N#Cc1ccc(COc2cccc(N3CCN(Cc4nc5ccc(C(=O)O)cc5n4CC4(F)CC4)CC3)c2)c(F)c1 [Example 11, 2-((4-(3-((4-cyano-2-fluorobenzyl)oxy)phenyl)piperazin-1-yl)methyl)-1-((1-fluorocyclopropyl)methyl)-1H-benzo[d]imidazole-6-carboxylic acid]
- Monkey ivGTT (po) insulinmax [2]: ++ (a maximum insulin concentration is greater than 100 IU/mL)
